According to PubChem BioAssay AID577 (University of Pittsburgh Molecular Library Screening Center, 2007):
Only a part is listed here, and it is no random draw. Some results for these compounds are left out of this collection, so the calls shown say nothing about other tests. Activity calls are given as the source filed them. No stated cut-off is given here; in the data, active means z-score below about -3; inactive means the rest.

Amino acid sequences for entries named in this document (tags omitted). Residues count along the entry.
UniProt P06935, 1371-1501 limits assumed: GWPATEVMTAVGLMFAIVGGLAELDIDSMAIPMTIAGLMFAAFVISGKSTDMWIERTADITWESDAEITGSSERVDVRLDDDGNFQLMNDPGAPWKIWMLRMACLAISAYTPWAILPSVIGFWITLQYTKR
UniProt P06935, 1502-1679 limits assumed: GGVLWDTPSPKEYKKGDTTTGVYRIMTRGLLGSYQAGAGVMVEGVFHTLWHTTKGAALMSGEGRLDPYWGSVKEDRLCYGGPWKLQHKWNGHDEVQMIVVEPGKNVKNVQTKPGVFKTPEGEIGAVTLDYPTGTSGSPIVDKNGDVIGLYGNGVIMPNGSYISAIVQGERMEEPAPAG

Each compound was assayed against Genome polyprotein (West Nile virus) (UniProt P06935) (assay: inhibitors of WNV NS2B-NS3 protease, primary screen, biochemical, fluorogenic substrate (AID 577)). Settings: fluorogenic substrate Ex360/Em465, stronger effect = lower value.

Row | SMILES | z-score
1 | O=C(OC1CN2CCC1CC2)C(CO)(c1ccccc1)c1ccccc1 (configuration not stated) | inactive: -0.82
2 | CN(C)c1cccc(C(=O)NCC2(N(C)C)CCCCC2)c1 | inactive: -0.51
